Measurements reported in patent US20230340011A1 (Asteroid Therapeutics, priority 2022, published 2023).
pEC50: −log10 of the molar value. Read-outs that look alike come from different tables or passages of the source.

Amino acid sequences for entries named in this document (tags omitted).
UniProt P55055, whole entry: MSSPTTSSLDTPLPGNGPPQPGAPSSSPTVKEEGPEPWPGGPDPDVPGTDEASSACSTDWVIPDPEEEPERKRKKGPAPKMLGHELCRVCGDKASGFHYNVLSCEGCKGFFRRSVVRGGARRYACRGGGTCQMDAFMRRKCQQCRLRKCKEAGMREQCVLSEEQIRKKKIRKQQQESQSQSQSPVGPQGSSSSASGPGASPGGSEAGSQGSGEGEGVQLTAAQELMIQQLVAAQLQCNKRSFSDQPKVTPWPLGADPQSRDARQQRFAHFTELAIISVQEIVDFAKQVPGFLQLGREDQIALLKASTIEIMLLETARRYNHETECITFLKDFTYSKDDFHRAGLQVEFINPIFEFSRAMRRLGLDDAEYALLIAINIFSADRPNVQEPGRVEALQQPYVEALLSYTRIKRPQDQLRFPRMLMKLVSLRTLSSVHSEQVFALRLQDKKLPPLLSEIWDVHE

Target: LXRβ (Homo sapiens (Human), UniProt P55055)
Test: In vitro assay LXRβ: PathHunter NHR CHO cells, LXRβ / Steroid Receptor Co-activator Peptide enzyme fragment complementation
Format: cell-based
Protocol: PathHunter NHR CHO cells stably transfected with tagged full-length human LXRβ and a nuclear fusion protein containing Steroid Receptor Co-activator Peptide (SRCP). The full-length human LXRβ was tagged with the ProLink™ component of the DiscoverX Enzyme Fragment Complementation (EFC) system and the SRCP domain is fused to the enzyme acceptor component (EA) expressed in the nucleus. Cells were seeded in a total volume of 20 μL into white walled, 384-well microplates and incubated at 37° C. overnight prior to testing. Assay media contained charcoal-dextran filtered serum to reduce the level of hormones present. Final assay vehicle concentration was 1%. […] Microplates were read following signal generation with a PerkinElmer Envision instrument for chemiluminescent signal detection.

[1] = PathHunter NHR CHO cells, full-length human LXRβ and SRCP, chemiluminescent signal, read-out: LXRβ PPI

Row | SMILES | pEC50 | also measured
1 | CON(CC(C)C)C(=O)CC[C@@H](C)[C@H]1CC[C@H]2[C@@H]3CC=C4C[C@@H](O)CC[C@]4(C)[C@H]3CC[C@]12C [Example 67, (R)-4-((3S,8S,9S,10R,13R,14S,17R)-3-hydroxy-10,13-dimethyl-2,3,4,7,8,9,10,11,12,13,14,15,16,17-tetradecahydro-1H-cyclopenta[a]phenanthren-17-yl)-N-isobutyl-N-methoxypentanamide] | 5.00 to 6.00 | –
2 | C[C@H](CCC(=O)N1CC[C@H](CO)O1)[C@H]1CC[C@H]2[C@@H]3CC=C4C[C@@H](O)CC[C@]4(C)[C@H]3CC[C@]12C [Example 43, (R)-4-((3S,8S,9S,10R,13R,14S,17R)-3-hydroxy-10,13-dimethyl-2,3,4,7,8,9,10,11,12,13,14,15,16,17-tetradecahydro-1H-cyclopenta[a]phenanthren-17-yl)-1-((R)-5-(hydroxymethyl)isoxazolidin-2-yl)pentan-1-one] | < 5.00 | –
3 | CCCC1(O)CCN(C(=O)CC[C@@H](C)[C@H]2CC[C@H]3[C@@H]4CC=C5C[C@@H](O)CC[C@]5(C)[C@H]4CC[C@]23C)CC1 [Example 148, (R)-4-((3S,8S,9S,10R,13R,14S,17R)-3-hydroxy-10,13-dimethyl-2,3,4,7,8,9,10,11,12,13,14,15,16,17-tetradecahydro-1H-cyclopenta[a]phenanthren-17-yl)-1-(4-hydroxy-4-propylpiperidin-1-yl) pentan-1-one] | > 6.60 | –
4 | C#CC1(OC)CCN(C(=O)CC[C@@H](C)[C@H]2CC[C@H]3[C@@H]4CC=C5C[C@@H](O)CC[C@]5(C)[C@H]4CC[C@]23C)CC1 [Example 330, (R)-1-(4-ethynyl-4-methoxypiperidin-1-yl)-4-((3S,8S,9S,10R,13R,14S,17R)-3-hydroxy-10,13-dimethyl-2,3,4,7,8,9,10,11,12,13,14,15,16,17-tetradecahydro-1H-cyclopenta[a]phenanthren-17-yl)pentan-1-one] | 6.00 to 6.60 | –
5 | C[C@H](CCC(=O)N1CCCCCO1)[C@H]1CC[C@H]2[C@@H]3CC=C4C[C@@H](O)CC[C@]4(C)[C@H]3CC[C@]12C [Example 56, (R)-4-((3S,8S,9S,10R,13R,14S,17R)-3-hydroxy-10,13-dimethyl-2,3,4,7,8,9,10,11,12,13,14,15,16,17-tetradecahydro-1H-cyclopenta[a]phenanthren-17-yl)-1-(1,2-oxazepan-2-yl)pentan-1-one] | 6.00 to 6.60 | –
6 | C[C@H](CCC(=O)N(C)OCCCC(F)(F)F)[C@H]1CC[C@H]2[C@@H]3CC=C4C[C@@H](O)CC[C@]4(C)[C@H]3CC[C@]12C [Example 32, (R)-4-((3S,8S,9S,10R,13R,14S,17R)-3-hydroxy-10,13-dimethyl-2,3,4,7,8,9,10,11,12,13,14,15,16,17-tetradecahydro-1H-cyclopenta[a]phenanthren-17-yl)-N-methyl-N-(4,4,4-trifluorobutoxy)pentanamide] | < 5.00 | –
7 | CON(C)C(=O)CC[C@@H](C)[C@H]1CC[C@H]2[C@@H]3CC=C4C[C@@H](O)CC[C@]4(C)[C@H]3CC[C@]12C [Example 1, (R)-4-((3S,8S,9S,10R,13R,14S,17R)-3-hydroxy-10,13-dimethyl-2,3,4,7,8,9,10,11,12,13,14,15,16,17-tetradecahydro-1H-cyclopenta[a]phenanthren-17-yl)-N-methoxy-N-methylpentanamide] | – | pEC50 [1]: 6.00 to 6.60
8 | CON(C(=O)CC[C@@H](C)[C@H]1CC[C@H]2[C@@H]3CC=C4C[C@@H](O)CC[C@]4(C)[C@H]3CC[C@]12C)C1CCC1 [Example 38, (R)—N-cyclobutyl-4-((3S,8S,9S,10R,13R,14S,17R)-3-hydroxy-10,13-dimethyl-2,3,4,7,8,9,10,11,12,13,14,15,16,17-tetradecahydro-1H-cyclopenta[a]phenanthren-17-yl)-N-methoxypentanamide] | – | pEC50 [1]: 5.00 to 6.00
9 | C[C@H](CCC(=O)N1CCC(O)(C2CCC2)CC1)[C@H]1CC[C@H]2[C@@H]3CC=C4C[C@@H](O)CC[C@]4(C)[C@H]3CC[C@]12C [Example 194, (R)-1-(4-cyclobutyl-4-hydroxypiperidin-1-yl)-4-((3S,8S,9S,10R,13R,14S,17R)-3-hydroxy-10,13-dimethyl-2,3,4,7,8,9,10,11,12,13,14,15,16,17-tetradecahydro-1H-cyclopenta[a]phenanthren-17-yl)pentan-1-one] | 5.00 to 6.00 | –
10 | C[C@H](CCC(=O)N1CCCC(c2ccncc2)C1)[C@H]1CC[C@H]2[C@@H]3CC=C4C[C@@H](O)CC[C@]4(C)[C@H]3CC[C@]12C (stereo partly drawn) [Example 346, (4R)-4-((3S,8S,9S,10R,13R,14S,17R)-3-hydroxy-10,13-dimethyl-2,3,4,7,8,9,10,11,12,13,14,15,16,17-tetradecahydro-1H-cyclopenta[a]phenanthren-17-yl)-1-(3-(pyridin-4-yl)piperidin-1-yl)pentan-1-one] | – | pEC50 (read-out: LXRβ PPI): > 6.60
11 | C[C@H](CCC(=O)N1CC[S+]([O-])CC1)[C@H]1CC[C@H]2[C@@H]3CC=C4C[C@@H](O)CC[C@]4(C)[C@H]3CC[C@]12C [Example 18, (R)-4-((3S,8S,9S,10R,13R,14S,17R)-3-hydroxy-10,13-dimethyl-2,3,4,7,8,9,10,11,12,13,14,15,16,17-tetradecahydro-1H-cyclopenta[a]phenanthren-17-yl)-1-(1-oxidothiomorpholino) pentan-1-one] | < 5.00 | –
12 | C[C@H](CCC(=O)N1CC[C@@H](CO)O1)[C@H]1CC[C@H]2[C@@H]3CC=C4C[C@@H](O)CC[C@]4(C)[C@H]3CC[C@]12C [Example 42, (R)-4-((3S,8S,9S,10R,13R,14S,17R)-3-hydroxy-10,13-dimethyl-2,3,4,7,8,9,10,11,12,13,14,15,16,17-tetradecahydro-1H-cyclopenta[a]-phenanthren-17-yl)-1-((S)-5-(hydroxymethyl)isoxazolidin-2-yl) pentan-1-one] | – | pEC50 [1]: 6.00 to 6.60
13 | C[C@H](CCC(=O)N(C)OC1CCC1)[C@H]1CC[C@H]2[C@@H]3CC=C4C[C@@H](O)CC[C@]4(C)[C@H]3CC[C@]12C [Example 39, (R)—N-cyclobutoxy-4-((3S,8S,9S,10R,13R,14S,17R)-3-hydroxy-10,13-dimethyl-2,3,4,7,8,9,10,11,12,13,14,15,16,17-tetradecahydro-1H-cyclopenta[a]phenanthren-17-yl)-N-methylpentanamide] | 6.00 to 6.60 | –
14 | C[C@H](CCC(=O)N1CCCCO1)[C@H]1CC[C@H]2[C@@H]3CC=C4C[C@@H](O)CC[C@]4(C)[C@H]3CC[C@]12C [Example 34, (R)-4-((3S,8S,9S,10R,13R,14S,17R)-3-hydroxy-10,13-dimethyl-2,3,4,7,8,9,10,11,12,13,14,15,16,17-tetradecahydro-1H-cyclopenta[a]phenanthren-17-yl)-1-(1,2-oxazinan-2-yl)pentan-1-one] | 6.00 to 6.60 | –
15 | CON(CC1CC1)C(=O)CC[C@@H](C)[C@H]1CC[C@H]2[C@@H]3CC=C4C[C@@H](O)CC[C@]4(C)[C@H]3CC[C@]12C [Example 40, (R)—N-(cyclopropylmethyl)-4-((3S,8S,9S,10R,13R,14S,17R)-3-hydroxy-10,13-dimethyl-2,3,4,7,8,9,10,11,12,13,14,15,16,17-tetradecahydro-1H-cyclopenta[a]phenanthren-17-yl)-N-methoxypentanamide] | – | pEC50 [1]: 5.00 to 6.00
16 | CCC1(O)CCN(C(=O)CC[C@@H](C)[C@H]2CC[C@H]3[C@@H]4CC=C5C[C@@H](O)CC[C@]5(C)[C@H]4CC[C@]23C)CC1 [Example 129, (R)-1-(4-ethyl-4-hydroxypiperidin-1-yl)-4-((3S,8S,9S,10R,13R,14S,17R)-3-hydroxy-10,13-dimethyl-2,3,4,7,8,9,10,11,12,13,14,15,16,17-tetradecahydro-1H-cyclopenta[a]phenanthren-17-yl)pentan-1-one] | > 6.60 | –
17 | CC(=O)N1CCN(C(=O)CC[C@@H](C)[C@H]2CC[C@H]3[C@@H]4CC=C5C[C@@H](O)CC[C@]5(C)[C@H]4CC[C@]23C)CC1 [Example 3, (R)-1-(4-acetylpiperazin-1-yl)-4-((3S,8S,9S,10R,13R,14S,17R)-3-hydroxy-10,13-dimethyl-2,3,4,7,8,9,10,11,12,13,14,15,16,17-tetradecahydro-1H-cyclopenta[a]phenanthren-17-yl)pentan-1-one] | < 5.00 | –
18 | C[C@H](CCC(=O)N1CCC(O)(CO)CC1)[C@H]1CC[C@H]2[C@@H]3CC=C4C[C@@H](O)CC[C@]4(C)[C@H]3CC[C@]12C [Example 150, (R)-4-((3S,8S,9S,10R,13R,14S,17R)-3-hydroxy-10,13-dimethyl-2,3,4,7,8,9,10,11,12,13,14,15,16,17-tetradecahydro-1H-cyclopenta[a]phenanthren-17-yl)-1-(4-hydroxy-4-(hydroxymethyl)piperidin-1-yl)pentan-1-one] | – | pEC50 (read-out: LXRβ PPI): > 6.60
19 | CC(C)C1(O)CCN(C(=O)CC[C@@H](C)[C@H]2CC[C@H]3[C@@H]4CC=C5C[C@@H](O)CC[C@]5(C)[C@H]4CC[C@]23C)CC1 [Example 149, (R)-4-((3S,8S,9S,10R,13R,14S,17R)-3-hydroxy-10,13-dimethyl-2,3,4,7,8,9,10,11,12,13,14,15,16,17-tetradecahydro-1H-cyclopenta[a]phenanthren-17-yl)-1-(4-hydroxy-4-isopropylpiperidin-1-yl) pentan-1-one] | 6.00 to 6.60 | –
20 | C#CC1(O)CCN(C(=O)CC[C@@H](C)[C@H]2CC[C@H]3[C@@H]4CC=C5C[C@@H](O)CC[C@]5(C)[C@H]4CC[C@]23C)CC1 [Example 147, (R)-1-(4-ethynyl-4-hydroxypiperidin-1-yl)-4-((3S,8S,9S,10R,13R,14S,17R)-3-hydroxy-10,13-dimethyl-2,3,4,7,8,9,10,11,12,13,14,15,16,17-tetradecahydro-1H-cyclopenta[a]phenanthren-17-yl)pentan-1-one] | – | pEC50 (read-out: LXRβ PPI): > 6.60
